# Ab-91 heavy chain CDR variants: yeast mating affinities

All variants were tested on one target, the spike HR2 peptide PDVDLGDISGINAS (SARS-CoV-2).

Parent scFv Ab-91: VL joined to VH by a (GGGGS)3 linker. Changes lie in the heavy chain CDRs alone.
VL: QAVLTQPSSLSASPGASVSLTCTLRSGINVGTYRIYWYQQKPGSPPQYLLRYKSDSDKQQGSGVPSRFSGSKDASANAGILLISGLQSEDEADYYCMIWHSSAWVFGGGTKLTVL
VH: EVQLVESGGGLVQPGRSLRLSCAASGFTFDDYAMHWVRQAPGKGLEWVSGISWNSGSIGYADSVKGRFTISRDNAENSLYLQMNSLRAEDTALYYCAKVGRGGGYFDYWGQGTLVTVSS

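AAYL51 was designed without a model: most single CDR substitutions and a random sample of double and triple ones. The assay is AlphaSeq: two haploid yeast populations carry antibody and antigen on their surface. After mating in shaken culture at 30 °C for 16 h, diploids were selected and their barcode pairs sequenced. Each replicate has its own calibration line, from reference interactions of the BCL2 family. There are three technical replicates.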

Positions count from residue 1 of the parent VH; T28A puts A in place of T. Affinities are written as log10 Kd with Kd in nM; a lower number is a better binder. A mean of the replicates is given; it leaves out those without a signal. Where no diploid with the target was found in any replicate, the entry reads "nd": below detection, most likely a poor binder, though not proof of it. As a blank, each scFv also met three strains without target: over library AAYL51, 21% of these pairings were detected, typically at 4.54 and seldom below 3.26. Parent in this assay: reference entry 1.86, copy in this library 0.88.

| changes | log10 Kd (nM), mean | replicates with signal |
|---|---|---|
| T28A/A61D/K65C | nd | 0 of 3 |
| I51T/G59Q/Y105R | 4.58 | 2 of 3 |
| F29H/G56Y/R101S | 4.47 | 3 of 3 |
| G59E/Y105V/D107T | 3.22 | 1 of 3 |
| G50I/I58G/G103E | nd | 0 of 3 |
| S52P/S55V/K65L | nd | 0 of 3 |
| D30A/I51T/Y108S | nd | 0 of 3 |
| G26F/A61P/G103S | 4.78 | 1 of 3 |
| F27W/R101S/D107S | nd | 0 of 3 |
| D31I/M34T/Y105N | nd | 0 of 3 |
| W53S/R101S/Y108C | 1.78 | 3 of 3 |
| T28I/G56I | 4.06 | 1 of 3 |
| G26D/S57G/Y105V | 4.59 | 3 of 3 |
| F29T/G102V/G104Y | 5.22 | 1 of 3 |
| G26V/I51S/G59Y | 5.10 | 1 of 3 |
| G50V/I51H/R101V | nd | 0 of 3 |
| F27V/D31T/S52I | nd | 0 of 3 |
| F29N/D62P/F106A | nd | 0 of 3 |
| G26N/G56D/D62P | 2.99 | 3 of 3 |
| G26T/S55F/F106T | 4.82 | 1 of 3 |
| D31I/I51H/S57Y | nd | 0 of 3 |
| Y60E/S63G | 3.41 | 3 of 3 |
| G100A/Y108A | 3.16 | 3 of 3 |
| T28W/V64C | 3.84 | 1 of 3 |
| Y32N/W53M/V64Y | 5.48 | 2 of 3 |
| A33E/G59H/G104E | 4.53 | 2 of 3 |
| S55Y/S63I | 4.80 | 2 of 3 |
| F27H/T28Q/G102R | 4.85 | 3 of 3 |
| F29T/S52I/K65A | nd | 0 of 3 |
| G50K/N54I/K65R | nd | 0 of 3 |
| Y32E/M34T/H35P | nd | 0 of 3 |
| F29P/K65W/G104M | nd | 0 of 3 |
| N54S/S55E/Y108N | nd | 0 of 3 |
| I58G/G102Q | nd | 0 of 3 |
| A61Y/G100T | 5.92 | 2 of 3 |
| G50Q/S57H/Y108D | 5.71 | 1 of 3 |
| F27R/W53S | 3.67 | 1 of 3 |

Further variants, results first:

| log10 Kd (nM), mean | replicates with signal | changes |
|---|---|---|
| nd | 0 of 3 | Y60T/V64Y/R101Y |
| 4.77 | 1 of 3 | A33D/I51M |
| nd | 0 of 3 | F27P/S63H/K65L |
| 4.57 | 1 of 3 | S52M/I58N/S63H |
| 4.27 | 2 of 3 | T28R/S55P/G59R |
| nd | 0 of 3 | H35Q/G56N/S57T |
| nd | 0 of 3 | H35P/I51S/G56D |
| nd | 0 of 3 | S57R/S63Y/G100W |
| nd | 0 of 3 | G50D/Y60N |
| nd | 0 of 3 | F27I/H35I/S52E |
| nd | 0 of 3 | F27H/I51G/V99C |
| 4.12 | 3 of 3 | Y60D/Y105H/D107A |
| 2.44 | 3 of 3 | S63W/G100W/Y105W |
| nd | 0 of 3 | I51H/S55Q |
| nd | 0 of 3 | T28E/A33I/S55C |
| nd | 0 of 3 | S52L/S55A/V99Y |
| 4.06 | 2 of 3 | T28A/D31P/N54G |
| 2.61 | 3 of 3 | G56R/D62G/Y108G |
| 5.08 | 2 of 3 | G26V/G56W/R101S |
| nd | 0 of 3 | H35N/S55P/G100A |
| 4.85 | 3 of 3 | D62T/G104A/Y108I |
| nd | 0 of 3 | Y32A/G50E/G103A |
| nd | 0 of 3 | W53K/K65Y/F106A |
| nd | 0 of 3 | N54I/Y60E/G100E |
| nd | 0 of 3 | M34R/G50N/G100I |
| 3.50 | 1 of 3 | G26E/S55M/D107R |
| 3.74 | 1 of 3 | I58G/G100A/F106H |
| 2.38 | 3 of 3 | N54G/I58Q/K65R |
| 4.71 | 3 of 3 | G50D/W53F/D107K |
| 5.23 | 1 of 3 | H35R/G50M/S55G |
| nd | 0 of 3 | H35Y/N54W/S55C |
| 3.89 | 1 of 3 | F29R/D30G/K65P |
| nd | 0 of 3 | F27G/G103H/D107K |
| 4.61 | 1 of 3 | M34V/N54Q/G102T |
| 5.50 | 2 of 3 | M34G/G50W/Y108V |
| nd | 0 of 3 | I51R/D62L/R101N |
| nd | 0 of 3 | D30K/G50H/Y105F |
| nd | 0 of 3 | V99S/G103C/G104F |

The first 10 entries again:

{"changes": "T28A/A61D/K65C", "log10 Kd (nM), mean": "nd", "replicates with signal": "0 of 3"}
{"changes": "I51T/G59Q/Y105R", "log10 Kd (nM), mean": "4.58", "replicates with signal": "2 of 3"}
{"changes": "F29H/G56Y/R101S", "log10 Kd (nM), mean": "4.47", "replicates with signal": "3 of 3"}
{"changes": "G59E/Y105V/D107T", "log10 Kd (nM), mean": "3.22", "replicates with signal": "1 of 3"}
{"changes": "G50I/I58G/G103E", "log10 Kd (nM), mean": "nd", "replicates with signal": "0 of 3"}
{"changes": "S52P/S55V/K65L", "log10 Kd (nM), mean": "nd", "replicates with signal": "0 of 3"}
{"changes": "D30A/I51T/Y108S", "log10 Kd (nM), mean": "nd", "replicates with signal": "0 of 3"}
{"changes": "G26F/A61P/G103S", "log10 Kd (nM), mean": "4.78", "replicates with signal": "1 of 3"}
{"changes": "F27W/R101S/D107S", "log10 Kd (nM), mean": "nd", "replicates with signal": "0 of 3"}
{"changes": "D31I/M34T/Y105N", "log10 Kd (nM), mean": "nd", "replicates with signal": "0 of 3"}

The measurements come from Engelhart et al. 2022 (doi:10.1038/s41597-022-01779-4) through the FLAb antibody collection.